PMC4208661, “SGLT2 inhibitors act from the extracellular surface of the cell membrane” (Physiological Reports, 2014)

Molecular target: T1, hSGLT2 (Homo sapiens, UniProt P31639)
T1 sequence (P31639 1-672): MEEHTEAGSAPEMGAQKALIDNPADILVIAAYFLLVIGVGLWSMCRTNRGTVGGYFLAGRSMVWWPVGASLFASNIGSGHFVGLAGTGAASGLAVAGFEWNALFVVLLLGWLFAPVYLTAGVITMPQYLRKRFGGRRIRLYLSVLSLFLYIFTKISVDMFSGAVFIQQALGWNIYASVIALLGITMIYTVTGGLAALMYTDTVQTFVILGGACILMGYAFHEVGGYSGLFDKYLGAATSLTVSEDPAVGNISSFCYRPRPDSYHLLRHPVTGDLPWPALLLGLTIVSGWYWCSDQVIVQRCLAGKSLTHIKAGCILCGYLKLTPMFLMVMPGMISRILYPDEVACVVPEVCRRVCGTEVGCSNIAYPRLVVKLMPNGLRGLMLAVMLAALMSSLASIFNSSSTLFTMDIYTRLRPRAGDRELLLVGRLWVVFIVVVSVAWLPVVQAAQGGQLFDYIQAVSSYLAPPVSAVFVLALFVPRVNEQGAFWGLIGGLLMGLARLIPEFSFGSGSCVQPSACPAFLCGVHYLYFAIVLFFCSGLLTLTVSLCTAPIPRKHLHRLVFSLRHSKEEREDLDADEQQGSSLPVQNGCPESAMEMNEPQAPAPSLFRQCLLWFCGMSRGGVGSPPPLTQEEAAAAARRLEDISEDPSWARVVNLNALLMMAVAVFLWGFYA
Assay: Whole-cell patch clamp, inward glucose current with inhibitor in the intracellular (pipette) solution, hSGLT2
Assay type: cell-based
Set-up: transfected with 1 μg of the vector containing the hSGLT2 or hSGLT1 coding region; expressed in transfected cells; host or cells: HEK-293T
Text: Phlorizin was used as a control. […] The intracellular NaCl concentration was maintained at either 5 or 150 mmol/L using CsCl to replace NaCl (Fig. 5A and B).

inhibition of inward hSGLT2 glucose current (10 μmol/L phlorizin intracellular, 150 mmol/L intracellular Na+): no significant inhibition
decrease in hSGLT2 glucose-induced current (200 μmol/L phlorizin intracellular, 150 mmol/L intracellular Na+): 85%
inhibition of inward hSGLT2 Na+/glucose current (10–200 μmol/L phlorizin intracellular, 5 mmol/L intracellular Na+): did not inhibit
Structure (SMILES): O=C(CCc1ccc(O)cc1)c1c(O)cc(O)cc1O[C@@H]1O[C@H](CO)[C@@H](O)[C@H](O)[C@H]1O [phlorizin]
